From patent US5869449A, “38-decarboxy-38-hydroxymethyl derivatives of teiocoplanin antibiotics and a process for preparing them” (Gruppo Lepetit S.P.A., priority 1990, dated 1999)

Assay: Acid-base titration (pK MCS)
Format: physicochemical
Conditions: methyl cellosolve (MCS) H2O 4/1, excess 0.01M HCl, titrated with 0.01N NaOH; one basic ionizable function

38-Decarboxy-38-hydroxymethyl teicoplanin A2, component 2
pKMCS: 6.9
